Assay results published in patent publication US11530229B2, “Cyano cyclobutyl compounds for CBL-B inhibition and uses thereof” (Nurix Therapeutics, Inc., priority 2019, dated 2022).

Key:
[1] = tested on: primary human total T-cells; test: T-cell activation, CD25 surface staining, Biological Example 9; type: cell-based; details: 48 hours, fold change over baseline, Table 5; for CD25 staining CD3 1 μM / CD25 staining CD3 3 μM: anti-CD3 stimulation alone; for CD25 staining CD3 1 μM / CD25 staining CD3/CD28 1 μM: 1 μM inhibitor; for CD25 staining CD3 3 μM: 3 μM inhibitor; for CD25 staining CD3/CD28 0.3 μM / CD25 staining CD3/CD28 1 μM: anti-CD3 and anti-CD28 co-stimulation; for CD25 staining CD3/CD28 0.3 μM: 0.3 μM inhibitor
[2] = tested on: primary human total T-cells; test: T-cell activation, CD25 surface staining, Biological Example 13; type: cell-based; details: 48 hours, fold change over baseline, Table 8; for CD25 staining CD3 1 μM / CD25 staining CD3 3 μM: anti-CD3 stimulation alone; for CD25 staining CD3 1 μM / CD25 staining CD3/CD28 1 μM: 1 μM inhibitor; for CD25 staining CD3 3 μM: 3 μM inhibitor; for CD25 staining CD3/CD28 0.3 μM / CD25 staining CD3/CD28 1 μM: anti-CD3 and anti-CD28 co-stimulation; for CD25 staining CD3/CD28 0.3 μM: 0.3 μM inhibitor

Row | Structure (SMILES) | CD25 staining CD3 1 μM [1] | CD25 staining CD3 3 μM [1] | CD25 staining CD3 1 μM [2] | CD25 staining CD3 3 μM [2] | CD25 staining CD3/CD28 0.3 μM [1] | CD25 staining CD3/CD28 1 μM [1] | CD25 staining CD3/CD28 0.3 μM [2] | CD25 staining CD3/CD28 1 μM [2]
1 | Cc1cc(C(=O)Nc2cccc([C@]3(Cc4nncn4C)C[C@@H](C#N)C3)c2)nc(C2CC2)n1 [Compound 1, N-(3-((1r,3r)-3-cyano-1-((4-methyl-4H-1,2,4-triazol-3-yl)methyl)cyclobutyl)phenyl)-2-cyclopropyl-6-methylpyrimidine-4-carboxamide] | A (A indicates >1.14 fold) | A (A indicates >1.14 fold) | A (A indicates >1.14 fold) | A (A indicates >1.14 fold) | – | – | – | –
2 | Cn1cnnc1C[C@]1(c2cccc(N3Cc4c(cc(CN5CCC6(CC6)C5)cc4C(F)(F)F)C3=O)c2)C[C@H](C#N)C1 [Compound 4, (1r,3r)-3-(3-(6-((5-azaspiro[2.4]heptan-5-yl)methyl)-1-oxo-4-(trifluoromethyl)isoindolin-2-yl)phenyl)-3-((4-methyl-4H-1,2,4-triazol-3-yl)methyl)cyclobutane-1-carbonitrile] | A (A indicates >1.14 fold) | A (A indicates >1.14 fold) | A (A indicates >1.14 fold) | A (A indicates >1.14 fold) | A (A indicates >1.39 fold) | A (A indicates >1.39 fold) | A (A indicates >1.39 fold) | A (A indicates >1.39 fold)
3 | C[C@@H]1CN(Cc2cc3c(c(C(F)(F)F)c2)CN(c2cccc([C@]4(Cc5nncn5C)C[C@@H](C#N)C4)c2)C3=O)CCC1(F)F [Compound 11, (1R,3r)-3-(3-(6-(((R)-4,4-difluoro-3-methylpiperidin-1-yl)methyl)-1-oxo-4-(trifluoromethyl)isoindolin-2-yl)phenyl)-3-((4-methyl-4H-1,2,4-triazol-3-yl)methyl)cyclobutane-1-carbonitrile] | A (A indicates >1.14 fold) | A (A indicates >1.14 fold) | A (A indicates >1.14 fold) | A (A indicates >1.14 fold) | A (A indicates >1.39 fold) | A (A indicates >1.39 fold) | A (A indicates >1.39 fold) | A (A indicates >1.39 fold)
4 | C[C@H]1CCCN(Cc2cc3c(c(C(F)(F)F)c2)CN(c2cccc([C@]4(Cc5nncn5C)C[C@@H](C#N)C4)c2)C3=O)C1 [Compound 19, (1R,3r)-3-((4-methyl-4H-1,2,4-triazol-3-yl)methyl)-3-(3-(6-(((S)-3-methylpiperidin-1-yl)methyl)-1-oxo-4-(trifluoromethyl)isoindolin-2-yl)phenyl)cyclobutane-1-carbonitrile] | A (A indicates >1.14 fold) | A (A indicates >1.14 fold) | A (A indicates >1.14 fold) | A (A indicates >1.14 fold) | A (A indicates >1.39 fold) | A (A indicates >1.39 fold) | A (A indicates >1.39 fold) | A (A indicates >1.39 fold)
5 | Cn1cnnc1C[C@]1(c2cccc(N3Cc4c(cc(CN[C@H]5CCC(F)(F)C5)cc4C(F)(F)F)C3=O)c2)C[C@H](C#N)C1 [Compound 20, (1R3r)-3-(3-(6-((((S)-3,3-difluorocyclopentyl)amino)methyl)-1-oxo-4-(trifluoromethyl)isoindolin-2-yl)phenyl)-3-((4-methyl-4H-1,2,4-triazol-3-yl)methyl)cyclobutane-1-carbonitrile] | A (A indicates >1.14 fold) | A (A indicates >1.14 fold) | A (A indicates >1.14 fold) | A (A indicates >1.14 fold) | A (A indicates >1.39 fold) | A (A indicates >1.39 fold) | A (A indicates >1.39 fold) | A (A indicates >1.39 fold)
6 | Cn1cnnc1C[C@]1(c2cccc(N3Cc4c(cc(CN[C@@H]5CCC(F)(F)C5)cc4C(F)(F)F)C3=O)c2)C[C@H](C#N)C1 [Compound 21, (1R,3r)-3-(3-(6-((((R)-3,3-difluorocyclopentyl)amino)methyl)-1-oxo-4-(trifluoromethyl)isoindolin-2-yl)phenyl)-3-((4-methyl-4H-1,2,4-triazol-3-yl)methyl)cyclobutane-1-carbonitrile] | A (A indicates >1.14 fold) | A (A indicates >1.14 fold) | A (A indicates >1.14 fold) | A (A indicates >1.14 fold) | A (A indicates >1.39 fold) | A (A indicates >1.39 fold) | A (A indicates >1.39 fold) | A (A indicates >1.39 fold)
7 | C[C@@H]1CN(Cc2cc(C(=O)Nc3cccc([C@]4(Cc5nncn5C)C[C@@H](C#N)C4)c3)nc(C3CC3)c2)CCO1 [Compound 56, N-(3-((1r,3R)-3-cyano-1-((4-methyl-4H-1,2,4-triazol-3-yl)methyl)cyclobutyl)phenyl)-6-cyclopropyl-4-(((R)-2-methylmorpholino)methyl)picolinamide] | A (A indicates >1.14 fold) | A (A indicates >1.14 fold) | A (A indicates >1.14 fold) | A (A indicates >1.14 fold) | A (A indicates >1.39 fold) | A (A indicates >1.39 fold) | A (A indicates >1.39 fold) | A (A indicates >1.39 fold)
